The source of these data is patent US8193384B2, “Polymer-bound phosphitylating reagents for the synthesis of organophosphorus compounds” (priority 2005, dated 2012).

The data set is described as follows: Stability studies on storage (NMR / mass spectrometry).
Where [1] appears, read: 2 months storage at −20° C., NMR and/or mass spectrometry.
Where [2] appears, read: two weeks storage at −20° C., spectroscopic methods / HR-MS.

For “O—[(O,O-bis(2-cyanoethyl)phosphoryl]-O-[2-cyanoethyl phosphorochloridite]diisopropylaminophosphoramidite”, the storage stability result under setting [1] was “remained stable” and the storage stability result (10 days at room temperature in DMSO solution) was “remained stable”. With “bis(2-cyanoethyl diisopropylphosphoramidite)”, the storage stability result under setting [2] is given as “remained stable”. In the case of “2-cyanoethyl phosphoryl-O,O-bis(2-cyanoethyl diisopropylphosphoramidite)”, the storage stability result under setting [2] was “remained stable”. Consider “diisopropylphosphoramidochloridite-O-2-cyanoethyl diisopropylphosphoramidite”, for which, under setting [1], the storage stability entry is on record as “remained stable”.
